Assay results as given in BindingDB's records for doi:10.1124/jpet.104.071282 (Neurocrine Biosciences, 2004).
Values joined by “and” are separate entries in the source; they are usually repeats but may differ in a detail not shown here. Identical values can stand only once.

Chains of the proteins cited; added tags and fusions are not shown. Lines headed by an entry give the natural chain unless they say otherwise; changes in a name come on top.
UniProt P62813: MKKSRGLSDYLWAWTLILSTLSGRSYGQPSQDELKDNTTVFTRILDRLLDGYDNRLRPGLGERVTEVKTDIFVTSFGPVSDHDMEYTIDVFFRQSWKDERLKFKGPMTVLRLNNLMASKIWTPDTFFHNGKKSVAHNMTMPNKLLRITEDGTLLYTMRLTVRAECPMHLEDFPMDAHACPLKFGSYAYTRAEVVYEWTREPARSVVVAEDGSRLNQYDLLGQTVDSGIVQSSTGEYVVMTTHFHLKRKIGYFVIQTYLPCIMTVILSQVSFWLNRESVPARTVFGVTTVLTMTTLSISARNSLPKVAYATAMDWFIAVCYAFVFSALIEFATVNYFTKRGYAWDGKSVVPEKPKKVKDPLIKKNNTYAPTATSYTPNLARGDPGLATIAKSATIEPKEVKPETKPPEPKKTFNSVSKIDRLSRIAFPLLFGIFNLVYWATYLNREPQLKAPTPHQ

Biological target: Gamma-aminobutyric acid receptor subunit alpha-1 (Rattus norvegicus, UniProt P62813)

With `CC(=O)N(C)c1cccc(-c2ccnc3c(C(=O)c4cccs4)cnn23)c1` [CAS_325715-02-4] the Ki was 1.2 nM and 1.8 nM.
